Source: patent publication US9574173 (ACCELERATED BIOSCIENCES, dated 2017)

Molecular target: mechanistic target of rapamycin (mTOR) (human)
Test: immunoprecipitation and Western blot, hTS cells, RA 4 hr (FIG. 28g)

B1: eukaryotic translation initiation factor-4E binding protein 1 (eIF4EBP1) (other)
chain: SGGSSCSQTPSRAIPATRRVVLGDGVQLPPGDYSTTPGGTLFSTTPGGTRIIYDRKFLMECRNSPVTKTPPRDLPTIPGVTSPSSDEPPMEASQSHLRNSPEDKRAGGEESQFEMDI
notes: Endogenous protein of RA-treated hTS cells
B1: binds.
